Literature values as cited in patent US20150056166A1, “FLAVONE DERIVATIVES AND THEIR USE” (Twincore GmbH, priority 2012, published 2015).

Details: cited from earlier work

Question: Which “level generally considered safe for human consumption” value does the source give for Magnesium stearate here?
Answer: The value was “below 2500 mg/kg per day”.
